Tested on: B16F10 melanoma tumor
Experiment: In vivo anticancer efficacy, subcutaneous B16F10 melanoma tumor model
Parameters: species or system BALB/c nude mice
Conditions: Data 3
Experimental: Tumor-bearing mice were established by subcutaneously injecting a suspension of 5 × 10^5 B16F10 cells per mouse into the front flank of each nude mouse. When tumor volume reached 50−70 mm^3, the animals were randomly divided into five groups (n = 5). The mice were administered different compounds suspended in PBS via the tail vein every 3 days for a total of four times.
The mice underwent four treatment courses on day 0, day 3, day 6, and day 9. Tumor size and body weight were measured every day. Tumor volume was calculated via the following formula: V = 1/2 × (minor axis) × (major axis)[2].
After 12 days, the mice were sacrificed and dissected to obtain tumor tissues and main organs, including heart, liver, spleen, lung, and kidney. Subsequently, all tissues were fixed in a 4% paraformaldehyde solution, routinely paraffin-embedded and sectioned, and then stained with hematoxylin and eosin, as well as using TdT-mediated dUTP nick-end labeling (TUNEL) for subsequent pathological analysis. TUNEL-positive cells appeared fluorescent green, representing the apoptosis of tumor cells (nuclei were fluorescent blue, stained with DAPI).
13. In vivo anticancer efficacy […]
13.2 Calculation of the tumor growth inhibition values (TGI)
Tumor growth inhibition values (TGI) were calculated using the following formula: TGI (%) = (1 − RTVtreatment/
RTVcontrol)*100. […]

COc1cccc2c1C(=O)c1c(O)c3c(c(O)c1C2=O)C[C@@](O)(C(=O)CO)C[C@@H]3O[C@H]1C[C@H](N)[C@H](O)[C@H](C)O1 [Dox, doxorubicin]
tumor growth inhibition values (TGI %): 64.5%
